The values that follow are results of earlier work, collected in US4668689A, “Glutarimide derivatives for treating oestrogen-dependent tumors” (National Research Development Corporation, priority 1984, dated 1987).

For this data set, the system named is aromatase. The note with it: literature; cited from earlier work.

Consider `CCC1(c2ccncc2)CCC(=O)NC1=O` (stereo not shown) [Pyridoglutethimide, 3-ethyl-3-(4-pyridyl)piperidine-2,6-dione], for which the inhibition of aromatase entry is “inhibits aromatase”.
